One assay concerns the target CpomPBP2 (Cydia pomonella, UniProt I3ZNT9). In words: Competitive fluorescence binding assay with 1-NPN probe. As to conditions: read-out: dissociation constant (KD) of 1-NPN; 2 μM CpomPBP2, 50 mM Tris-HCl pH 6.8, binding curve and Scatchard plot.
In assay [1] the test system is TPBP2 (C-terminus truncated CpomPBP2). In words: 1-NPN fluorescence / competitive binding assay on C-terminus truncated CpomPBP2. As to conditions: read-out: binding constant of 1-NPN; 2 μM TPBP2, 50 mM Tris-HCl pH 6.8, binding curve and Scatchard plot.

Protein sequences, listed by entry. Tags and fused reporters are not part of them. Residues count along the entry.
UniProt I3ZNT9, 26-169 limits assumed: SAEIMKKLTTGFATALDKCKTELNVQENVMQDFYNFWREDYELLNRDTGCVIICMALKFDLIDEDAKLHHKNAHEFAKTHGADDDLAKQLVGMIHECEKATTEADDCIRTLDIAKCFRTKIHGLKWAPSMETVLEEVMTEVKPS

Each structure is given as a SMILES string.

Regarding `c1ccc(Nc2cccc3ccccc23)cc1`, the results for the Kd (on CpomPBP2; in assay [1]) were 7.85 µM and 15.4 µM, respectively.

These data come from PMC4772377, “Structural insights into Cydia pomonella pheromone binding protein 2 mediated prediction of potentially active semiochemicals” (Scientific Reports, 2016).
